Measurements as given in PubChem BioAssay (NCI).
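Step 1: Grow cells in 96-well plates. Step 2: Expose to compound for 48 hours at 5 concentrations. Step 3: Interpolate endpoints linearly; if unreached, use highest concentration. Here, GI50 denotes the concentration required for 50% inhibition of growth. TGI: total growth inhibition.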

Legend:
Experiment in all cases: DTP human tumour cell line panel, 48 h
[1] = test system: SF-295 CNS
[2] = test system: OVCAR-4 ovarian
[3] = test system: CCRF-CEM leukemia
[4] = test system: XF 498 CNS
[5] = test system: SF-268 CNS
[6] = test system: UACC-257 melanoma
[7] = test system: NCI-H226 lung
[8] = test system: SR leukemia
[9] = test system: KM12 colon
[10] = test system: COLO 205 colon
[11] = test system: UO-31 renal
[12] = test system: SK-MEL-28 melanoma
[13] = test system: ACHN renal
[14] = test system: K-562 leukemia
[15] = test system: NCI-H322M lung
[16] = test system: IGROV1 ovarian
[17] = test system: RPMI-8226 leukemia
[18] = test system: UACC-62 melanoma
[19] = test system: HOP-62 NSCLC
[20] = test system: NCI-H23 lung
[21] = test system: SW-620 colon
[22] = test system: HCC-2998 colon
[23] = test system: SNB-75 CNS
[24] = test system: LXFL 529 NSCLC
[25] = test system: M19-MEL melanoma
[26] = test system: DMS 114 small cell lung
[27] = test system: U251 CNS
[28] = test system: SK-MEL-2 melanoma
[29] = test system: SF-539 CNS
[30] = test system: SK-MEL-5 melanoma
[31] = test system: DMS 273 small cell lung
[32] = test system: MALME-3M melanoma
[33] = test system: CAKI-1 renal
[34] = test system: HCT-116 colon
[35] = test system: NCI-H522 lung
[36] = test system: NCI-H460 lung
[37] = test system: OVCAR-5 ovarian
[38] = test system: MOLT-4 leukemia
[39] = test system: OVCAR-3 ovarian
[40] = test system: HOP-92 NSCLC
[41] = test system: A549 NSCLC
[42] = test system: M14 melanoma
[43] = test system: HL-60(TB) leukemia
[44] = test system: TK-10 renal
[45] = test system: HT29 colon
[46] = test system: HCT-15 colon
[47] = test system: OVCAR-8 ovarian
[48] = test system: 786-0 renal
[49] = test system: SNB-19 CNS
[50] = test system: KM20L2 colon
[51] = test system: PC-3 prostate
[52] = test system: MCF7 breast
[53] = test system: HS 578T breast
[54] = test system: SN12C renal
[55] = test system: BT-549 breast
[56] = test system: RXF 393 renal
[57] = test system: SK-OV-3 ovarian
[58] = test system: MDA-MB-435
[59] = test system: DU-145 prostate
[60] = test system: LOX IMVI melanoma
[61] = test system: MDA-MB-231 breast
[62] = test system: T-47D breast
[63] = test system: EKVX NSCLC
[64] = test system: NCI/ADR-RES ovarian
[65] = test system: A498 renal

Compound O=P(Nc1ccccn1)(N1CC1)N1CC1 has a TGI [1] of over 100 µM, a TGI [2] of over 100 µM and a TGI [3] of over 100 µM. It also gave a TGI [4] of over 100 µM, a TGI [5] of over 100 µM and a TGI [6] of over 100 µM. The TGI [7] was over 100 µM, the TGI [8] was over 100 µM and the TGI [9] was over 100 µM. It also gave a TGI [10] of over 100 µM, a TGI [11] of over 100 µM and a TGI [12] of over 100 µM. It also gave a TGI [13] of over 100 µM, a TGI [14] of over 100 µM and a TGI [15] of over 100 µM. For the same compound, the TGI [16] was over 100 µM, the TGI [17] was over 100 µM and the TGI [18] was over 100 µM. It also gave a TGI [19] of over 100 µM, a TGI [20] of over 100 µM and a TGI [21] of over 100 µM. It also gave a TGI [22] of over 100 µM, a TGI [23] of over 100 µM and a TGI [24] of over 100 µM. The TGI [25] was over 100 µM, the TGI [26] was over 100 µM and the TGI [27] was over 100 µM. For the same compound, the TGI [28] was over 100 µM, the TGI [29] was over 100 µM and the TGI [30] was over 100 µM. It also gave a TGI [31] of over 100 µM, a TGI [32] of over 100 µM and a TGI [33] of over 100 µM. The TGI [34] was over 100 µM, the TGI [35] was over 100 µM and the TGI [36] was over 100 µM. The TGI [37] was over 100 µM, the TGI [38] was over 100 µM and the TGI [39] was over 100 µM. It also gave a TGI [40] of over 100 µM, a TGI [41] of over 100 µM and a TGI [42] of over 100 µM. For the same compound, the TGI [43] was over 100 µM, the TGI [44] was over 100 µM and the TGI [45] was over 100 µM. For the same compound, the TGI [46] was over 100 µM, the TGI [47] was over 100 µM and the TGI [48] was over 100 µM. For the same compound, the TGI [49] was over 100 µM and the TGI [50] was over 100 µM.
For O=C(Nc1cc([As](=O)(O)O)ccc1O)c1ccccc1, the GI50 [1] was over 100 µM, the TGI [1] was over 100 µM and the GI50 [2] was over 100 µM. It also gave a TGI [2] of over 100 µM, a GI50 [51] of over 100 µM and a TGI [51] of over 100 µM. The GI50 [3] was over 100 µM, the TGI [3] was over 100 µM and the GI50 [5] was over 100 µM. For the same compound, the TGI [5] was over 100 µM, the GI50 [52] was over 100 µM and the TGI [52] was over 100 µM. It also gave a GI50 [6] of over 100 µM, a TGI [6] of over 100 µM and a GI50 [7] of over 100 µM. The TGI [7] was over 100 µM, the GI50 [53] was over 100 µM and the TGI [53] was over 100 µM. The GI50 [8] was over 100 µM, the TGI [8] was over 100 µM and the GI50 [9] was over 100 µM. It also gave a TGI [9] of over 100 µM, a GI50 [54] of over 100 µM and a TGI [54] of over 100 µM. For the same compound, the GI50 [10] was over 100 µM, the TGI [10] was over 100 µM and the GI50 [11] was over 100 µM. For the same compound, the TGI [11] was over 100 µM, the GI50 [12] was over 100 µM and the TGI [12] was over 100 µM. It also gave a GI50 [13] of over 100 µM, a TGI [13] of over 100 µM and a GI50 [15] of over 100 µM. The TGI [15] was over 100 µM, the GI50 [16] was over 100 µM and the TGI [16] was over 100 µM. It also gave a GI50 [17] of over 100 µM, a TGI [17] of over 100 µM and a GI50 [55] of over 100 µM. For the same compound, the TGI [55] was over 100 µM, the GI50 [18] was over 100 µM and the TGI [18] was over 100 µM. For the same compound, the GI50 [19] was over 100 µM, the TGI [19] was over 100 µM and the GI50 [20] was over 100 µM. For the same compound, the TGI [20] was over 100 µM, the GI50 [21] was over 100 µM and the TGI [21] was over 100 µM. The GI50 [22] was over 100 µM, the TGI [22] was over 100 µM and the GI50 [23] was over 100 µM. The TGI [23] was over 100 µM, the GI50 [27] was over 100 µM and the TGI [27] was over 100 µM. The GI50 [28] was over 100 µM, the TGI [28] was over 100 µM and the GI50 [29] was over 100 µM. For the same compound, the TGI [29] was over 100 µM, the GI50 [30] was over 100 µM and the TGI [30] was over 100 µM. For the same compound, the GI50 [56] was over 100 µM, the TGI [56] was over 100 µM and the GI50 [57] was over 100 µM. The TGI [57] was over 100 µM, the GI50 [58] was over 100 µM and the TGI [58] was over 100 µM. The GI50 [32] was over 100 µM, the TGI [32] was over 100 µM and the GI50 [59] was over 100 µM. For the same compound, the TGI [59] was over 100 µM, the GI50 [60] was over 100 µM and the TGI [60] was over 100 µM. It also gave a GI50 [33] of over 100 µM, a TGI [33] of over 100 µM and a GI50 [34] of over 100 µM. It also gave a TGI [34] of over 100 µM, a GI50 [35] of over 100 µM and a TGI [35] of over 100 µM. The GI50 [36] was over 100 µM, the TGI [36] was over 100 µM and the GI50 [37] was over 100 µM. For the same compound, the TGI [37] was over 100 µM, the GI50 [38] was over 100 µM and the TGI [38] was over 100 µM. It also gave a GI50 [39] of over 100 µM, a TGI [39] of over 100 µM and a GI50 [61] of over 100 µM. For the same compound, the TGI [61] was over 100 µM, the GI50 [40] was over 100 µM and the TGI [40] was over 100 µM. For the same compound, the GI50 [62] was over 100 µM, the TGI [62] was over 100 µM and the GI50 [41] was over 100 µM. For the same compound, the TGI [41] was over 100 µM, the GI50 [42] was over 100 µM and the TGI [42] was over 100 µM. It also gave a GI50 [43] of over 100 µM, a TGI [43] of over 100 µM and a GI50 [44] of over 100 µM. For the same compound, the TGI [44] was over 100 µM, the GI50 [45] was over 100 µM and the TGI [45] was over 100 µM. For the same compound, the GI50 [46] was over 100 µM, the TGI [46] was over 100 µM and the GI50 [47] was over 100 µM. It also gave a TGI [47] of over 100 µM, a GI50 [63] of over 100 µM and a TGI [63] of over 100 µM. The GI50 [64] was over 100 µM, the TGI [64] was over 100 µM and the GI50 [48] was over 100 µM. The TGI [48] was over 100 µM, the GI50 [49] was over 100 µM and the TGI [49] was over 100 µM. For the same compound, the GI50 [65] was over 100 µM and the TGI [65] was over 100 µM.
